The target in this experiment is T1, GluN1-GluN2B (Rattus norvegicus, UniProt P35439+Q00960).
T1 construct: GFP (N); expressed in transfected cells; host or cells: HEK-293T
Format: cell-based.

The chains behind the UniProt entries cited, without tags or fusion partners. Residues count along the entry.
UniProt Q00960, 27-1482: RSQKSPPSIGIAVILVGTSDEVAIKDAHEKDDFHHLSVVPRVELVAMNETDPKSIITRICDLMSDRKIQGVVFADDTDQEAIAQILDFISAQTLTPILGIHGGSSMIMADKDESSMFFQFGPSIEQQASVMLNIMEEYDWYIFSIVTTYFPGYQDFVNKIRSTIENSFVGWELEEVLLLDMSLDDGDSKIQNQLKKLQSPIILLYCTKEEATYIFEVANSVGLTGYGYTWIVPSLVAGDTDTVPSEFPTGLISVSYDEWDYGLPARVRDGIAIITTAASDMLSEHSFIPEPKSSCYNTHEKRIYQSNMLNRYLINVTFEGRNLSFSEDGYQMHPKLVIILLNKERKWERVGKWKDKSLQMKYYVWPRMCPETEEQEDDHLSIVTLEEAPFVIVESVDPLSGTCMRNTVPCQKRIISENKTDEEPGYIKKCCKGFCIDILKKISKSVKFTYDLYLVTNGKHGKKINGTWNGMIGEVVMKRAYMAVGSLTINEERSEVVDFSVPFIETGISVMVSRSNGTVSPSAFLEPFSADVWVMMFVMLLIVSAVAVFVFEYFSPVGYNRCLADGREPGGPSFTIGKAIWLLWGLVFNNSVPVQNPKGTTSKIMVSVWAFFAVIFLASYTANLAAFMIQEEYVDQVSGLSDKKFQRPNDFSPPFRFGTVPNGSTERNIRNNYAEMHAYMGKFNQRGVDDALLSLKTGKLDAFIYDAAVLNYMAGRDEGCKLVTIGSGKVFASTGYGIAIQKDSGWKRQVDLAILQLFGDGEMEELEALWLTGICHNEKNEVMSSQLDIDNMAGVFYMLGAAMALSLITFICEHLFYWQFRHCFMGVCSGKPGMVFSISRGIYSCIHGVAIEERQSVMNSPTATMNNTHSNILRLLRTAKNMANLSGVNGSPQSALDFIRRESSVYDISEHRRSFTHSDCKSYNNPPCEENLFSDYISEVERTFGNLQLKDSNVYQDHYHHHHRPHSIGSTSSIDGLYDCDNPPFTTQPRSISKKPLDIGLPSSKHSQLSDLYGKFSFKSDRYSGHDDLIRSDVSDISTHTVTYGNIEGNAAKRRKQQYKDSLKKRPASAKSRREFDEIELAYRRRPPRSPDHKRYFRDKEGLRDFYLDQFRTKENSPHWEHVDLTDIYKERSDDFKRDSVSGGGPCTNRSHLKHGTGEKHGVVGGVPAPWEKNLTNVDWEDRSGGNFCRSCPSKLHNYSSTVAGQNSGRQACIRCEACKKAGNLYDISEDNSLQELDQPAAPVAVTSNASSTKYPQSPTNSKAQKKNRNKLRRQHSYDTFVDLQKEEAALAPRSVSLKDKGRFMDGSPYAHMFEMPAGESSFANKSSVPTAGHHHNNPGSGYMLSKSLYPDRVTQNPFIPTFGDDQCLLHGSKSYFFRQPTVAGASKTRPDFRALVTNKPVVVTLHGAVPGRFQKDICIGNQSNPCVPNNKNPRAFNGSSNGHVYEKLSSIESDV

In the case of `NCC(=O)O` [glycine, reference compound], the “response to glycine alone” value is recorded as “did not result in any measurable response”.

The record behind these values is PMC12678337, “EAR-20 peptide, a novel NMDA receptor positive allosteric modulator” (Frontiers in Pharmacology, 2025).
